Among the data in ChEMBL document CHEMBL1128283, “Novel modified carboxy terminal fragments of neuropeptide Y with high affinity for Y2-type receptors and potent functional antagonism at a Y1-type receptor” (J Med Chem, 1995) are IC50 values, retold here.

The chains behind the UniProt entries cited, without tags or fusion partners.
UniProt Q9ERC0, whole entry: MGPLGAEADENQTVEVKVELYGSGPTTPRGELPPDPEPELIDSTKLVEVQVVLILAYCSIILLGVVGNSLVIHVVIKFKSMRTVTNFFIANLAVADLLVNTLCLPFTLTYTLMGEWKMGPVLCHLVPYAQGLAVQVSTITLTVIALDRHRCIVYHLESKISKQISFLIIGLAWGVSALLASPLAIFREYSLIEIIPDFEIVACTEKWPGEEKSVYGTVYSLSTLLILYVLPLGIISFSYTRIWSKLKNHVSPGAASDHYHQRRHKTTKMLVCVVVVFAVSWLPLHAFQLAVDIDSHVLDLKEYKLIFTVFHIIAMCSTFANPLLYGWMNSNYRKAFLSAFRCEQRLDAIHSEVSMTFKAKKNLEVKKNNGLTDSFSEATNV

For the experiment, the target named is Neuropeptide Y receptor type 2 (Rattus norvegicus, UniProt Q9ERC0). Briefly: 50% displacement of specifically bound [3H]NPY2 from rat brain membranes. Type of experiment: cell membranes, Membrane.

The molecule `CSCC[C@H](NC(=O)[C@@H](N)Cc1ccccc1)C(=O)N[C@@H](CCCN=C(N)N)C(=O)N[C@@H](Cc1ccccc1)C(N)=O` registered an IC50 of 40 µM.

As a reminder, the IC50 is the concentration at which inhibition is half-maximal.
